# Antibody variant affinities, Ab-14 heavy chain, assay 1

Source: Engelhart et al. 2022 (doi:10.1038/s41597-022-01779-4), MIT Lincoln Laboratory and A-Alpha Bio; data file from the FLAb repository.

The target is the same throughout: PDVDLGDISGINAS, from the HR2 region of SARS-CoV-2 spike.

Parent scFv Ab-14: VH joined to VL by three GGGGS repeats. Changes lie in the heavy chain CDRs alone.
VH: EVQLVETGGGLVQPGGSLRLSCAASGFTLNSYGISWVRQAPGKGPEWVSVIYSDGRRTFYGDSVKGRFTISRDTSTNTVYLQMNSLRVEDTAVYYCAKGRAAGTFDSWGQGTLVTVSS
VL: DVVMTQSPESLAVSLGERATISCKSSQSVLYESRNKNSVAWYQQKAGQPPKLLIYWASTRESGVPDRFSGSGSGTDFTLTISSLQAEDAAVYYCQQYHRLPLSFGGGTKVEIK

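The starting antibody came from a phage panning campaign against this peptide. AAYL49 was designed without a model: most single CDR substitutions and a random sample of double and triple ones. Affinity was read by AlphaSeq, a pooled yeast mating assay with surface-displayed partners. Mating (16 h, 30 °C) was followed by selection of diploids and sequencing of their barcodes. A regression on co-assayed BCL2-family reference pairs converts the normalised counts of each replicate to an apparent Kd. There are three technical replicates.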

The parent's heavy chain CDRs are GFTLNSYGIS, VIYSDGRRTFYGDSVK, GRAAGTFDS; each variant's own CDRs replace them letter for letter. Numbers give log10(Kd / nM), so 0 is 1 nM and 3 is 1 µM. Smaller is tighter. Where no diploid with the target was found in that replicate, the entry reads "ND": below detection, most likely a poor binder, though not proof of it.

CDR-H1,CDR-H2,CDR-H3,"replicates, log10 nM",signal with controls
GFTLLSYGIS,VIYSDGRRTFYGHSVK,WRAAGTFDS,ND / ND / ND,0/9
GFTLNSYGIS,VIYSDGARTFYIISVK,GRAAGTFDS,ND / 4.48 / ND,1/9 (2.91)
GFTGNSYGIS,VIYSDGRRMFYGDSVK,GRAAGTFPS,ND / ND / ND,0/9
GFTANSYGIS,VIYSDGRRTFYDDSVK,GRAAGTKDS,2.26 / 2.06 / 1.56,0/9
GFTLNSYGIS,VIYSVGRRTMYGDSVK,GRPAGTFDS,ND / ND / ND,0/9
GFTLNSYTIS,VIYYDGRRTFYGDSVK,GRAAGTFPS,ND / ND / ND,0/9
GFTLNSYGIS,VIYSDGRRTFYYDSVK,GEAAGTTDS,ND / ND / ND,0/9
GFTLDSYGIS,VIYEDNRRTFYGDSVK,GRAAGTFDS,ND / ND / 4.40,1/9 (3.80)
MFTLNSYGIS,VIYSDGRWTFYGDSVK,GRAPGTFDS,ND / ND / ND,0/9
GDTLNSYGIS,VIYFDIRRTFYGDSVK,GRAAGTFDS,5.62 / 3.54 / 4.52,2/9 (4.14)
GFTLNSYWIS,VIYSDGRRTFYGDSVK,GNAAGTFDS,ND / ND / ND,0/9
GFTLNSYGII,VIYSDGRRTFYGDFHK,GRAAGTFDS,ND / 4.32 / 4.07,2/9 (3.61)
GFTLNSYGIS,VEYSPGRRTFYGDSFK,GRAAGTFDS,ND / ND / 4.38,3/9 (3.88)
GFTLNSYGIS,VIYSDGRRTFYYDLVK,GWAAGTFDS,ND / ND / ND,1/9 (3.11)
GFTLSSYGIS,VIYSDGRYTFYGDSVK,GRAPGTFDS,5.49 / ND / ND,2/9 (3.94)
GFTLNSYGMS,VIYSDGRRTFYGDSVT,GRAIGTFDS,ND / ND / ND,0/9
GFTLNSYGIS,VIYSDGRRTFGGDSSK,GRAAGTFTS,ND / 4.32 / 4.94,5/9 (4.93)
GFTLNPYGIS,VIYSDGRRTFYGDSVH,GRAAGTFDY,ND / ND / ND,0/9
GFTLNSYGIS,HIYSDGRRTFYGDSQK,GRAAGTFDS,5.53 / ND / ND,7/9 (4.29)
GFTLMSYGIS,VIYSDGRCTFYGDSVK,GRWAGTFDS,ND / ND / ND,1/9 (2.70)
KFTWNSYGHS,VIYSDGRRTFYGDSVK,GRAAGTFDS,ND / ND / ND,1/9 (5.17)
GFTLNSYGIS,VIYSDGRRTFYGDSVK,GRAAGTPDS,ND / ND / ND,2/9 (3.45)
GFTLNSYGIS,VDYCDGRRTFYGDSVK,GRVAGTFDS,ND / ND / ND,2/9 (4.57)
GFTLNSYGIS,VIYSDGRRTTYGDSVK,GRAMGTFDS,ND / ND / 4.46,2/9 (4.56)
GFTLNSYGIS,VIYSDDDRTFYGDSVK,GRAAGTFDW,ND / ND / ND,0/9
GFLLNSGGIS,VIYSDGRRTFYGDSIK,GRAAGTFDS,ND / ND / ND,2/9 (4.11)
GFTLNSYGIS,SIYSDGRRTFDYDSVK,GRAAGTFDS,5.53 / ND / 4.39,1/9 (3.75)
GFTLNSYGIS,VIYSQGRRTFYGDSVD,TRAAGTFDS,ND / ND / ND,1/9 (3.29)
GFTLTSYGIS,VIYSDGRRTFYGDSVK,GRAADTFDS,1.06 / 1.36 / 1.26,1/9 (3.75)
GFTLNSYGWS,VIVSDGRRTFYGDSVK,GRAAGFFDS,ND / ND / ND,0/9
GCTLNSYGIS,VIYCDGRRTFYGDSVK,GLAAGTFDS,ND / 5.12 / ND,1/9 (3.68)
GFTLNSYGIS,VIYSDGRRTFDGDSVK,RLAAGTFDS,4.01 / 2.89 / ND,1/9 (4.24)
GFTLNFYGIF,VIYSDGRRTFYGDSVK,GQAAGTFDS,ND / ND / ND,1/9 (3.90)
GFTLNSYGIS,VIYSDGSRTFYGDSVK,GRDAGTFCS,ND / ND / ND,1/9 (4.28)
GKTLNSYGIS,MIYSDGRRTFYGDSVK,GRAYGTFDS,ND / ND / ND,0/9
GFTLKSYGID,VIYSDGRRTFYGDSVK,IRAAGTFDS,4.76 / 3.50 / 5.73,4/9 (4.33)
GITLNSYGIS,VIYSDGRRTFYGDSVK,GRACGTFNS,ND / ND / ND,0/9
GFTLNSYGQS,VHYSDGRRTFYADSVK,GRAAGTFDS,ND / 4.01 / ND,0/9
GFTLNSYGIS,VIYSDGEITFYGDSRK,GRAAGTFDS,ND / ND / ND,0/9
GFTLNSYGIS,VIYSDGRRTYYGDSVK,GRAAGTFDS,1.35 / 1.46 / 1.49,4/9 (3.86)
GFTLNSYEIS,VIYSDGRRTFQGDSVK,GRARGTFDS,ND / ND / ND,0/9
GFTLNSYGIS,VIYSDGRRTFYGDSVK,GRAAPTFDS,ND / 2.96 / ND,0/9

Again, the first 4 entries without any signal:

| CDR-H1 | CDR-H2 | CDR-H3 | replicates, log10 nM | signal with controls |
|---|---|---|---|---|
| GFTLLSYGIS | VIYSDGRRTFYGHSVK | WRAAGTFDS | ND / ND / ND | 0/9 |
| GFTGNSYGIS | VIYSDGRRMFYGDSVK | GRAAGTFPS | ND / ND / ND | 0/9 |
| GFTLNSYGIS | VIYSVGRRTMYGDSVK | GRPAGTFDS | ND / ND / ND | 0/9 |
| GFTLNSYTIS | VIYYDGRRTFYGDSVK | GRAAGTFPS | ND / ND / ND | 0/9 |

Nonspecific signal, from three strains lacking the peptide, appeared in 15% of pairings of library AAYL49, centred on 4.06 (5% of these signals below 2.83); values are not corrected for it. Also given: how often the same scFv was detected with the empty control strains, with their mean in brackets. In this assay the parent's reference entry averaged 0.65; its copy inside this library read 4.11 (one replicate of three).